We go through 1 substance from publication PMC9792439.

This assay concerns the target His-tagged WT-UBQLN2 (human) (UniProt Q9UHD9). Briefly: pull-down.

Substance “K63 poly-ubiquitin (1-7) chains (from UniProt P0CG48 1-76)” displayed a fold more bound than K48 chains of 10 fold.
